Measured values taken from patent US10016499B2, “Multifunctional metal nanoparticles having a polydopamine-based surface and methods of making and using the same” (Northwestern University, priority 2011, dated 2018).

Key:
Type in all cases: cell-based
[1] = test system: oral cancer cells (OSCC15); experiment: OCT imaging of oral cancer cells with NRs (Example 1); settings: compared to uncoated control cells
Experimental: Oral squamous cell carcinoma 15 (OSCC15) cells were grown in DMEM containing 10% FBS and 4% gentamycin. To image cells with NRs, 2 mL of trypsin was added to confluent plates of OSCC15 cells, cells were removed, and 400 μL was added to 2 mL of DMEM high glucose media. Cells were centrifuged at 1500 rpm for 5 minutes, supernatant was removed, and 2 mL more media was added. NR suspensions from above were added to the cells and incubated for 30 minutes. Cells were centrifuged at 1500 rpm for 5 minutes, supernatant was removed, 2 mL of media was added, and finally cells were centrifuged and plated onto glass optical microscopy slides.
Bright field images were acquired in a Leica DMRX microscope. Additionally, optical coherence tomography (OCT) was acquired. A visible band Fourier-domain OCT was used in this study. The system adopts a commonpath parallel configuration and the schematic is described in a previous paper. The parallel configuration allowed simultaneous 2D B-scan OCT image acquisition (^˜1 mm cross and ^˜300 μm deep) with 5 fps frame rate. 3-D images were obtained by scanning the sample stage across the B-scan image plane. The axial resolution was ^˜1.5 μm given by the bandwidth (540-650 nm), and the transverse resolution and depth of focus were ^˜6 μm and ^˜200 μm, respectively. […]

[2] = test system: MDA-MB-231 breast cancer cells (high EGFR expression); experiment: Quantitative OCT cell imaging (NR binding), MDA-MB-231; settings: MDA-MB-231, 750-850 nm, antibody 5.7 nM ([NR]=14 pM), 1 hour
[3] = test system: low-EGFR expressing MCF7 breast cancer cells; experiment: Quantitative OCT cell imaging (NR binding), MCF7; settings: any of the concentrations tested
Experimental: 5×10^5 oral squamous cell carcinoma 15 (OSCC15), MDA-MB-231 (breast) and MCF7 (breast) cancer cells were grown in tissue culture plates for 3 days. OSCC15 cells were grown in high glucose DMEM (10% FBS, 1% gentamycin), MCF7 cells were grown in high glucose DMEM both with and without insulin (10% FBS, 1% pen/strep), and MDA-MB-231 cells were grown in RPMI-1640 media (10% FBS, 1% pen/strep). 2 mL of trypsin was added to confluent plates of OSCC15 cells, cells were removed, and 400 μL was added to 2 mL of DMEM high glucose media. Cells were centrifuged at 1500 rpm for 5 minutes, supernatant was removed, and 2 mL more media was added. NR suspensions were added to the cells and incubated for 30 minutes. Cells were centrifuged at 1500 rpm for 5 minutes, supernatant was removed, 2 mL of media was added, and finally cells were centrifuged and plated onto glass optical microscopy slides. Bright field images were acquired in a Leica DMRX microscope. […] OCT intensity between 750 and 850 nm localized to individual cells was quantified and plotted as a function of antibody concentration. […]
Inside the spectrometer, the interfered beam was collimated by an f=30 mm lens and directed to a holographic diffraction grating (1200 grooves/mm). […] Cells were identified in the image, and the average pixel intensity per cell between 750-850 nm was quantified to determine NR density.

[4] = test system: OSCC cells; experiment: Long term cellular toxicity (calcein / ethidium bromide fluorescence); settings: OSCC15 cells, NRs 0-95 μM Au, 20-48 hours, no irradiation
Experimental: For long term toxicity experiments, NRs (0-95 μM Au) were incubated with OSCC cells in 6 and 12 well plates with 1 mL DMEM high glucose media for 20-48 hours. 15 minutes before toxicity quantification, 1 μL 4 mM calcein and 1 μL 4 mM ethedium bromide was added to each well, and cells were incubated for 15 minutes. Fluorescence microscopy was performed on a Leica DM IRB light microscope and a QImaging QI Click camera. Red- and green-channel were acquired for each condition in triplicate, cells were counted manually, and an average percent viable cell percentage was calculated for each condition.

In the case of “ERBITUX® (cetuximab)-conjugated silver-coated gold nanorods: PD-coated gold nanorods silverized with AgNO3 and conjugated with cetuximab”, the OCT signal [1] is reported as “bright signal”.

In the case of “anti-EGFR-PD-NRs: polydopamine-coated gold nanorods functionalized with anti-EGFR antibody (ERBITUX, cetuximab)”, the “increase in NIR light (OCT) intensity localized to cells” value [2] is reported as 4.1 fold, the “increase in NIR light (OCT) intensity localized to cells” value ([2]; listed as Anti-EGFR-PD-NRs) is reported as 4 fold and the OCT intensity change [3] is reported as “No increase in intensity was observed”.

For “NR sample conjugated to both bortezomib and ERBITUX® (cetuximab): PD-coated gold nanorods with bortezomib, capped with cetuximab instead of PEG-SH”, the cellular toxicity [4] was “toxicity was significantly increased”.
